From paper PMC8041193 (PLoS ONE, 2021)
Ends that are not written are not given here.

Assay: LA concentration in porcine intestinal fluid collected via in vivo ultrafiltration probes, UPLC-MS/MS;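 further: pigs aged 6–8 weeks and weighing 15–20 kg, intestinal fluid sampled through surgically implanted ultrafiltration probes whose placement was checked post mortem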
Conditions: pig, fasted, oral 1 mg LA clinical formulation; at 1 hour in the distal duodenum and the proximal jejunum; range of individual samples

GGVLVQPG [LA, Larazotide acetate]
Peak LA concentrations: 0.32 to 1.76 µM
